The values below are quoted from earlier work in publication PMC6166790 (Nature, 2018).

Where two headings read alike, the source gives them in different places.

Data set [1] has as its system CLR alanine mutants (CGRP receptor).
In data set [2] the test system is RAMP1 D113A (CGRP receptor). Conditions: RAMP1 D113^RA mutation.
The test system of the next data set is CTR and CLR with RAMP1. Conditions: CTR or CLR with RAMP1.
Data set [3] concerns models of inflammatory bowel disease, and hypertension.

With Calcitonin gene-related peptide [CGRP], in data set [1] (CLR D280^ECL2 mutagenesis), the “CGRP mediated cAMP signalling at mutant” value is “greatly impacts CGRP mediated cAMP signalling”. For the same substance, the “CGRP potency at mutant” value in data set [1] (CLR D287^ECL2 mutant) is reported as “relatively limited effects on CGRP potency”; in data set [1] (CLR H289^5.34/ECL2 mutant), “no impact”; in data set [1] (CLR H289^ECL2 mutant) it was “relatively limited effects on CGRP potency”; in data set [1] (CLR S286^ECL2 mutant), “relatively limited effects on CGRP potency”; in data set [1] (CLR T239^3.56 mutant) it was “no impact”; in data set [1] (CLR V243^ICL2 mutant), “no impact”. In addition, the “CGRP potency at mutant” value is reported as “decreased CGRP potency” in data set [1] (CLR W254^4.44 mutant), “decreased CGRP potency” in data set [1] (CLR Y278^ECL2 mutant) and “small decrease in CGRP potency” in data set [2]. The “CGRP-mediated cAMP production, role of ECL3” value in data set [1] (CLR ECL3 alanine mutagenesis) is “limited role of this domain in CGRP-mediated cAMP production”. For the same substance, the “CGRP signalling at mutant” value in data set [1] (CLR I284^ECL2 alanine mutant) and in data set [1] (CLR T191^2.64 alanine mutant) was “marked impairment in CGRP signalling” in each case. Moreover, the “CGRP peptide potency at mutant” value in data set [1] (CLR N200^ECL1 alanine), in data set [1] (CLR Q202^ECL1 alanine) and in data set [1] (CLR V205^ECL1 alanine) was “no impact on CGRP peptide potency” each time. In addition, the “CGRP signaling at mutant” value in data set [1] (CLR W283^ECL2 to alanine) is listed as “highly detrimental to CGRP signaling”. In the data set on CLR/RAMP1, the receptor response selectivity entry was “selective response to CGRP”. Also, the “affinity of receptor for CGRP” value in the data set on CTR and CLR with RAMP1 is given as “high affinity”. The protective effect result in data set [3] is “protective in models of inflammatory bowel disease, and hypertension”.
